The record followed here is ChEMBL document CHEMBL3774372, “Design, physico-chemical properties and biological evaluation of some new N-[(phenoxy)alkyl]- and N-{2-[2-(phenoxy)ethoxy]ethyl}aminoalkanols as anticonvulsant agents” (Bioorg Med Chem, 2016).

Amino acid sequences for entries named in this document (tags omitted). A change or cut given only in a name is not applied to a line headed by its entry.
UniProt P21452, whole entry: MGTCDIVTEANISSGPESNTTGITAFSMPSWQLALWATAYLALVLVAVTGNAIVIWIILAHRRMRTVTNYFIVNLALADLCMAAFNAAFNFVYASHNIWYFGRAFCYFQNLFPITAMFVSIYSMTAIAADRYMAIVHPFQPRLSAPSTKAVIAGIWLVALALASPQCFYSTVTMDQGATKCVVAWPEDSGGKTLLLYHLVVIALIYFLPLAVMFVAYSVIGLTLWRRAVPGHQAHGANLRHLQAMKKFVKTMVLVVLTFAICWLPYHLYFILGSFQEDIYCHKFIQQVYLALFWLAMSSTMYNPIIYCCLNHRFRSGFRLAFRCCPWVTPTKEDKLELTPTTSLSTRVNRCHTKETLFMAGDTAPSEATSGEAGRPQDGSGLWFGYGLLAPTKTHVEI
UniProt P43116: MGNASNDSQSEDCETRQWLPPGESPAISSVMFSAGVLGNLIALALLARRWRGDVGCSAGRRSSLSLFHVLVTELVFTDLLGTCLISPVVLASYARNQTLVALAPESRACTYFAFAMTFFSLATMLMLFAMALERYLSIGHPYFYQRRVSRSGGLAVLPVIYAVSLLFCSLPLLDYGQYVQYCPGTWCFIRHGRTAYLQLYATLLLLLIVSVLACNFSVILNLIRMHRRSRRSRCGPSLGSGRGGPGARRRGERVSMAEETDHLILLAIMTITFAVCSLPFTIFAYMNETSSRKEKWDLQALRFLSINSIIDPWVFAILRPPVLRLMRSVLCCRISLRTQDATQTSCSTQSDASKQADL

One test addresses Substance-K receptor (Homo sapiens, UniProt P21452). Description: Displacement of [125I]NKA from human recombinant NK2 receptor expressed in CHO cells. The class given is cell-based. A general note: Displacement assays read how much labelled ligand stays bound in the presence of the test substance.
Test [1] concerns the target Prostaglandin E2 receptor EP2 subtype (Homo sapiens, UniProt P43116). Description: Displacement of [3H]PGE2 from human recombinant prostanoid EP2 receptor expressed in HEK293 cells. The class given is cell-based.

With `CCCCC(NC(=O)[C@H](CC(C)C)NC(=O)CNC(=O)[C@@H](NC(=O)[C@H](Cc1ccccc1)NC(=O)[C@H](CO)NC(=O)[C@@H](N)CC(=O)O)C(C)C)C(N)=O` (some centres not stated), the IC50 (in general, the concentration that gives 50% inhibition) at Substance-K receptor was 3.5 nM.
Turning to `CCCCC[C@H](O)/C=C/[C@H]1[C@H](O)CC(=O)[C@@H]1C/C=C\CCCC(=O)O` [DINOPROSTONE], the IC50 in test [1] is 2.6 nM.
